ChEMBL document CHEMBL4354879, “Bioisosteric Discovery of NPA101.3, a Second-Generation RET/VEGFR2 Inhibitor Optimized for Single-Agent Polypharmacology” (J Med Chem, 2020)

Species on record: Homo sapiens
Test: Selectivity ratio of IC50 for human ERG expressed in HEK293 cells to IC50 for recombinant human GST-tagged RET cytoplasmic domain (658 to 1114 residues) expressed in baculovirus expression system

`CC(C)(C)c1cc(NC(=O)Cc2ccc(-n3cnc4cc(-c5ccc(S(C)(=O)=O)cc5)ccc43)cc2)no1` gave a Ratio IC50 greater than 7000.
